This experiment has as its target T1, 15-LO (Oryctolagus cuniculus, UniProt P12530).
T1 construct: endogenous in cells; host or cells: rabbit reticulocytes
T1 sequence (P12530 1-663): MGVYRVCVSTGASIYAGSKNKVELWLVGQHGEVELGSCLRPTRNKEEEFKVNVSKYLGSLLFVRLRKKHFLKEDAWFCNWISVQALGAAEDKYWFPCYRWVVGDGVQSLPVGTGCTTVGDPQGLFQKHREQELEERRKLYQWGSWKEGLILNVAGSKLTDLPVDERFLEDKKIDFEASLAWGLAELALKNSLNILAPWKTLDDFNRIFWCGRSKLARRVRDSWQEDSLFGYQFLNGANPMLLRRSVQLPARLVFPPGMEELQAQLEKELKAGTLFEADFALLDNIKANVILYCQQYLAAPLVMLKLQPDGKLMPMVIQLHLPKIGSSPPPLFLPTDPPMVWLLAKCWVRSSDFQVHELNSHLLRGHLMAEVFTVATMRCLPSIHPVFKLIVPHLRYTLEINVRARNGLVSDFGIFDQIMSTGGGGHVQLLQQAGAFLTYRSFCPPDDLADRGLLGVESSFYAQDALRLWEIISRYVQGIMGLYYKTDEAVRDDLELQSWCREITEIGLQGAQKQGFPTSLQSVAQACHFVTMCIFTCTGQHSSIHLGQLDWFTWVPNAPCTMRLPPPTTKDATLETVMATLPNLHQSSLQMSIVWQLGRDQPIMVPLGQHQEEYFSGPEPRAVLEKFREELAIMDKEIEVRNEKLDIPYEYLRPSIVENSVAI
In words: 15-LO assay (13-HPODE, spectrophotometric). The format is biochemical. The conditions noted are these: rabbit reticulocytes; 13-HPODE spectrophotometrically. The procedure: 5-LO and 15-LO assays: Human peripheral blood mononuclear cells (PBMC) cells and rabbits reticulocytes were used in the 5-LO and 15-LO bioassays, and the assays were conducted according to the protocols reported previously, with either linoleic acid or arachidonic acid as substrates. LO activity was measured by quantifying immunodetectable Leukotriene B4 (LTB4) specifically with enzyme immunoassay (EIA) in the 5-LO assay, or monitoring 13-hydroperoxy-9,11-octadecadienoic acid (13-HPODE) spectrophotometrically in the 15-LO assay.
The results were expressed as either percentage inhibition, or IC50, for test samples and data represent the average ±SD of at least triplicate determinations.

Our source for the IC50 values is patent US20080226758A1, “Lipoxygenase and Cyclooxygenase Inhibition” (priority 2006, published 2008).

The IC50 is the midpoint of a concentration-inhibition curve. A higher IC50 goes with lower potency. `c1ccc2c(c1)SCc1c-2[nH]c2ccccc12` [PD-146176, reference compound] yielded an IC50 of 1120 nM.
